Data as given in ChEMBL document CHEMBL5034000, “Novel Bisubstrate Inhibitors for Protein N-Terminal Acetyltransferase D” (J Med Chem, 2021).

Legend:
Homo sapiens [1] = organism: Homo sapiens; test: Selectivity ratio of inhibition of human NatB to inhibition of human NatD
Homo sapiens [2] = organism: Homo sapiens; test: Selectivity ratio of inhibition of human PCAF to inhibition of human NatD
Homo sapiens [3] = organism: Homo sapiens; test: Selectivity ratio of inhibition of human NatE to inhibition of human NatD

Measured: Selectivity ratio

CC(C)(COP(=O)(O)OP(=O)(O)OC[C@H]1O[C@@H](n2cnc3c(N)ncnc32)[C@H](OP(=O)(O)O)[C@@H]1O)C(O)C(=O)NCCC(=O)NCCSCCC(=O)N[C@@H](CO)C(=O)NCC(=O)N[C@@H](CCCNC(=N)N)C(=O)NCC(=O)N[C@@H](CCCCN)C(N)=O (stereo partly drawn)
10000: Homo sapiens [1] | Homo sapiens [2] | Homo sapiens [3]
